Data set [1] has as its system 9L gliosarcoma. Put plainly: biodistribution of radioactivity 40 h after intracerebral injection in 9L gliosarcoma-bearing and sham-operated rats.
In data set [2] the test system is 9L gliosarcoma. In words: scintigraphic imaging of intracerebral 9L gliosarcoma-bearing and sham-operated rats.
Data set [3] has as its system murine ovarian tumor (MOT). Put plainly: biodistribution after i.p. injection in mice with murine ovarian tumor (MOT). To be noted: 5 i.p. injections 4 h apart, 24 h after last injection. The class given is in vivo, C3HeB/FeJ mice. As to the method:
The murine ovarian tumor (MOT) used in these experiments arose spontaneously in the ovary of a C3H mouse and is maintained in our laboratories by serial intraperitoneal [i.p.] transplantation in female C3HeB/FeJ mice. We have examined the appropriateness of the i.p. route for IUdR administration as a means to (i) bypass the rapid intrahepatic dehalogenation of this agent, and (ii) obtain high tumor to nontumor ratios. In these experiments, mice were injected with 10^6 tumor cells 24 h prior to the i.p. administration of ^125 IUdR [5 injections, 4 h apart]. […] Tumor-to-normal-tissue ratios derived from th biodistribution results ranged from 20 for organs with actively proliferating cells (for example uterus, intestine, stomach) to over 400 for organs with nondividing cells (brain, heart).

Structures are written as SMILES.

For the compound `O=c1[nH]c(=O)n([C@H]2C[C@H](O)[C@@H](CO)O2)cc1[123I]` [^123 IUdR, 5-[^123 I/^125 I]iodo-2'-deoxyuridine], the “tumor to normal tissue ratios, all the tissues” value in data set [1] (40 h, FIG. 3) was “eight”. The “uptake in a tumor that occupied a large portion of the right brain specimen” value in data set [1] (one animal, 40 h after injection) is given as 25 % of the ID. Moreover, in data set [1] (tumor-bearing animals, 40 h), the right brain/blood ratio is reported as 9, the “right brain/frontal lobes ratio” value is reported as 71 and the “right brain/left brain ratio” value worked out at 22. For the same compound, in data set [2] (1 h after injection), the “ratio of mean counts per pixel in the head, tumor bearing / control” value was “at least twice”. The “ratio of mean counts per pixel in the head, tumor bearing / control (maximum)” value in data set [2] (by 38 h) stood at 3.8.
Take `O=c1[nH]c(=O)n([C@H]2C[C@H](O)[C@@H](CO)O2)cc1[125I]` [^125 IUdR, 5-[^123 I/^125 I]iodo-2'-deoxyuridine]: in data set [3] (FIG. 4), the “tumor to non-tumor ratios” value is “extremely favorable”. For the same compound, the “tumor-to-normal-tissue ratio, organs with nondividing cells” value in data set [3] (brain, heart) is “over 400”. Besides, the “tumor-to-normal-tissue ratio, organs with actively proliferating cells” value in data set [3] (uterus, intestine, stomach) was 20.

The values are drawn from patent US5077034A, “Treatment of tumors with 5-radioiodo-2'-deoxyuridine” (priority 1990, dated 1991).
